# The entries are a selection whose mix differs from that of the whole data set. Activity calls are given as the source filed them. Cut-off read from the data, not from the text of the source: active = inhibition above about 50%; inactive = the rest.
# Assay: blockers of TWEAK-induced Fn14 reporter activity – luciferase reporter cells, uHTS, primary screen (AID 1159606)
# Details: TWEAK-stimulated Fn14 reporter cells, luciferase luminescence, 8 h; at 10 µM; hits give high values
row,SMILES,inhibition
1,CCC(=O)N(c1ccccc1)C1(COC)CCN(CCn2nnn(CC)c2=O)CC1,inactive: 10.9%
2,CCC(=O)N(c1ccccc1)C1(COC)CCN(CCc2cccs2)CC1,inactive: 2.77%

# From PubChem BioAssay AID1159606 (Sanford-Burnham Center for Chemical Genomics, 2016)
